Laboratory results as given in publication doi:10.1101/108498.

Sequences of proteins named here, by UniProt entry; tags and fusion partners are left off. A change or cut given only in a name is not applied to a line headed by its entry. Residues count along the entry.
UniProt P38920: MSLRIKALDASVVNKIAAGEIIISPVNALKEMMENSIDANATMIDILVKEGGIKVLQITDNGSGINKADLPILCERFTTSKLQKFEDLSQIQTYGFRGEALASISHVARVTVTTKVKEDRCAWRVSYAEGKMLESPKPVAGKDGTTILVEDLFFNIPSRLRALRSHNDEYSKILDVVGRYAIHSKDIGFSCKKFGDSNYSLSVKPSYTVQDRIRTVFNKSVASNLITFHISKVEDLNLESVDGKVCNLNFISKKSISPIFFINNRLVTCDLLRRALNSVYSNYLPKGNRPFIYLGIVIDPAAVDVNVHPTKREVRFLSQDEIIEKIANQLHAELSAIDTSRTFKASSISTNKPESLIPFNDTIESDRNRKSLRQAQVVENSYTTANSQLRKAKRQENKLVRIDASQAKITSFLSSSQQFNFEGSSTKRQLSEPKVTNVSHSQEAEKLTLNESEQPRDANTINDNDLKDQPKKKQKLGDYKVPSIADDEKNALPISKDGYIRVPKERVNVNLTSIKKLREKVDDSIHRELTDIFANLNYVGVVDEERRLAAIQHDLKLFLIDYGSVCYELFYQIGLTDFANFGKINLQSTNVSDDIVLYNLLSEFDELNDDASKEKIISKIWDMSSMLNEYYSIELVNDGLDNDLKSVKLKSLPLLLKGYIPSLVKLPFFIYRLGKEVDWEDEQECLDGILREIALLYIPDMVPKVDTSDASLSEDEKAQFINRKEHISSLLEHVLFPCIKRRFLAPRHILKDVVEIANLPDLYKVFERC
UniProt Q12083, 481-715: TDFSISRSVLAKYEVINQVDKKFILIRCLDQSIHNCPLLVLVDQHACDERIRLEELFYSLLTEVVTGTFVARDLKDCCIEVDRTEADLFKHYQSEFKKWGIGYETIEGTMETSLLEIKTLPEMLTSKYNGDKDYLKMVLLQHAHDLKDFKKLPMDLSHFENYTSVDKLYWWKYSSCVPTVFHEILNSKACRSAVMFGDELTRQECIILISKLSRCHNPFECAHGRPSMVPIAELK

Target: lexA-Mlh1 (S. cerevisiae) (UniProt P38920)
Assay: two-hybrid

β-galactosidase activity in the two-hybrid assay: 2.6 Miller units
Substance: Gal4-Mlh3 (amino acids 481-715) (from UniProt Q12083 481-715) (domain or fragment)
